Drawing on patent US9573956B2, “Compounds as dual inhibitors of phosphodiesterases and histone deacetylases” (FUNDACIÓN PARA LA INVESTIGACIÓN MÉDICA APLICADA, priority 2013, dated 2017), this text covers IC50 for one compound.

Chains of the proteins cited; added tags and fusions are not shown. Residues count along the entry.
UniProt O76083, 1-533 isoform O76083-2: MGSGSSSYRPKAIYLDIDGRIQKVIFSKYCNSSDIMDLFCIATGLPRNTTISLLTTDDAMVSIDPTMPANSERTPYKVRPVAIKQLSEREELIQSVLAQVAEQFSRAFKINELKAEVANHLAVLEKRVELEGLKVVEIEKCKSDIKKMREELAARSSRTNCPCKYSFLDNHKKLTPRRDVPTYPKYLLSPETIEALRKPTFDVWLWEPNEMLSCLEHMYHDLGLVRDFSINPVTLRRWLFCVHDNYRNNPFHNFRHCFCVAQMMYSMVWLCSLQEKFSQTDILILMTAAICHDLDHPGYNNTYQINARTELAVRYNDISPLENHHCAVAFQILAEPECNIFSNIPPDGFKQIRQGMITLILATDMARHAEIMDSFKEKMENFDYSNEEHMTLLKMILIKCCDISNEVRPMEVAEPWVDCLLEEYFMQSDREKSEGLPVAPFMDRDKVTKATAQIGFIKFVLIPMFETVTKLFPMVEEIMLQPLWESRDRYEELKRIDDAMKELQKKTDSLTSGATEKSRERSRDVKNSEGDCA

The experiment concerns the target T1, PDE9A isoform b (Homo sapiens, UniProt O76083).
T1 construct: they are full-length with N-terminal GST tag; GST (N); purchased BPS Biosciences 60090; host or cells: baculovirus infected Sf9 cells
The experiment in a line: PDE enzyme activity assay (HTRF cGMP), PDE9A. The format is biochemical. To be noted: recombinant enzyme; read-out: PDE9A inhibition (IC50). A general note: TR-FRET usually uses a lanthanide donor and a delayed reading to cut background.

By IC50 is commonly meant the point on the concentration scale where inhibition reaches its midpoint. With `CCCc1nn(C)c2c(=O)[nH]c(-c3cc(S(=O)(=O)N4CCN(C)CC4)ccc3OCC)nc12` [Sildenafil, reference compound], the concentration for half-maximal inhibition (IC50) is 1 to 10 µM.
